The target of the experiment is TNF-α converting enzyme (TACE) (Homo sapiens, UniProt P78536). Briefly: TACE inhibition, fluorescent peptidyl substrate. It is filed as biochemical.

The chains behind the UniProt entries cited, without tags or fusion partners. Residues count along the entry.
UniProt P78536, 215-824: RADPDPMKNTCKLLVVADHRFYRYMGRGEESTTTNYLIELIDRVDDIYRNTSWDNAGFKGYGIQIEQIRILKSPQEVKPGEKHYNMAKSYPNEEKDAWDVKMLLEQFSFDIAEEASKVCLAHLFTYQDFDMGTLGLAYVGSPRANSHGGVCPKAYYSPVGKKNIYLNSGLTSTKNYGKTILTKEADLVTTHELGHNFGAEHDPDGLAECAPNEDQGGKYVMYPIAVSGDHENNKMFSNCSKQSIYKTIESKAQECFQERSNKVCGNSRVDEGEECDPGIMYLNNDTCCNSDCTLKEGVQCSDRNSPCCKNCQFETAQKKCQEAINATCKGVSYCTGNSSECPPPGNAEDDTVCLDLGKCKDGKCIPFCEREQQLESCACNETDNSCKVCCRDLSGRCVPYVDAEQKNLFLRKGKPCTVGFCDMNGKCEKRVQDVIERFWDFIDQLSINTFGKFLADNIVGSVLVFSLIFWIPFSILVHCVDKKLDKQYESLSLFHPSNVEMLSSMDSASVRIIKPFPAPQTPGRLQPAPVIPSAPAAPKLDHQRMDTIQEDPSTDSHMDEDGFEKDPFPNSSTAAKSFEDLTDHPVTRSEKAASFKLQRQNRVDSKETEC

Structures are written as SMILES.

One may read the IC50 as the point on the concentration scale where inhibition reaches its midpoint. High values mean weaker potency, low ones greater potency.

As to `CC#CCOc1ccc([S+]([O-])[C@@H](C(=O)NO)C(C)C)cc1` (stereo partly shown) [Example 108, R-2-{[4-(2-butynyloxy)phenyl]sulfinyl}-2-isopropyl-N-hydroxyacetamide], half-maximal inhibition (IC50) required 48 nM.

These data come from patent publication US6825354B2 (Wyeth Holdings Corporation, priority 1999, dated 2004).
